Laboratory results reported in patent US7888385B2, “Airway alkalinization as therapy for airway diseases” (priority 2002, dated 2011).

Tested on: mycobacteria
Format: in vivo, human
Conditions: pH3 by nebulizer four times daily for 9 months, low-glutamine diet

## CC(=O)O [acetic acid]
  mycobacteria in respiratory secretions: can no longer be identified
